Tested on: EZH2
Test: Selectivity and potency for EZH2 versus other histone methyltransferases (by Ki)
Assay type: biochemical

CCN(c1cc(-c2ccc(CN3CCOCC3)cc2)cc(C(=O)NCc2c(C)cc(C)[nH]c2=O)c1C)C1CCOCC1 [tazemetostat]
targeting both WT and mutant EZH2: potent

From patent US20200138825A1, “METHOD OF TREATING MALIGNANT RHABDOID TUMOR OF THE OVARY (MRTO)/SMALL CELL CANCER OF THE OVARY OF THE HYPERCALCEMIC TYPE(SCCOHT) WITH AN EZH2 INHIBITOR” (Epizyme, Inc., priority 2015, published 2020)
